Reference: ChEMBL document CHEMBL5252536, “Discovery of VU0467485/AZ13713945: An M4 PAM Evaluated as a Preclinical Candidate for the Treatment of Schizophrenia” (ACS Med Chem Lett, 2017)

Sequences of proteins named here, by UniProt entry; tags and fusion partners are left off.
UniProt P08173, whole entry, looked up: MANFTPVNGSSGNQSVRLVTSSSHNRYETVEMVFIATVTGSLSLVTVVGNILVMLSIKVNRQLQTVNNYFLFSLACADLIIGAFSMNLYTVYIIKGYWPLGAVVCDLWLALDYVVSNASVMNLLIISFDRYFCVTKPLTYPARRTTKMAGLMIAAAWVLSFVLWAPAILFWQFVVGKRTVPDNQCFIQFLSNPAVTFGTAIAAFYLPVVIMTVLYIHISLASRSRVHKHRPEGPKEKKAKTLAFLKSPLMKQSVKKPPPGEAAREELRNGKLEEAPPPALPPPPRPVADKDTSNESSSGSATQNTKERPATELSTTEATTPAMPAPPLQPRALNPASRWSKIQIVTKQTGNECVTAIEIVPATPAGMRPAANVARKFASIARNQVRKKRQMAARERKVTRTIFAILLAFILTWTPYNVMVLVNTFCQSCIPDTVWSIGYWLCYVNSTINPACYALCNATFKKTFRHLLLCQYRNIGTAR

Columns and labels:
[1] = molecular target: Muscarinic acetylcholine receptor M4 (Homo sapiens, UniProt P08173); experiment: Positive allosteric modulator activity at human M4 receptor expressed in CHO cells co-expressing Gqi5 assessed as leftward shift in concentration response at 10 uM measured after 140 sec by fold shift assay; conditions: filed as positive allosteric modulator
[2] = molecular target: T1, Muscarinic acetylcholine receptor M4 (Rattus norvegicus) (UniProt P08485); experiment: Positive allosteric modulator activity at rat M4 receptor expressed in CHO cells co-expressing Gqi5 assessed as leftward shift in concentration response at 10 uM measured after 140 sec by fold shift assay; conditions: filed as positive allosteric modulator
T1 sequence (whole entry): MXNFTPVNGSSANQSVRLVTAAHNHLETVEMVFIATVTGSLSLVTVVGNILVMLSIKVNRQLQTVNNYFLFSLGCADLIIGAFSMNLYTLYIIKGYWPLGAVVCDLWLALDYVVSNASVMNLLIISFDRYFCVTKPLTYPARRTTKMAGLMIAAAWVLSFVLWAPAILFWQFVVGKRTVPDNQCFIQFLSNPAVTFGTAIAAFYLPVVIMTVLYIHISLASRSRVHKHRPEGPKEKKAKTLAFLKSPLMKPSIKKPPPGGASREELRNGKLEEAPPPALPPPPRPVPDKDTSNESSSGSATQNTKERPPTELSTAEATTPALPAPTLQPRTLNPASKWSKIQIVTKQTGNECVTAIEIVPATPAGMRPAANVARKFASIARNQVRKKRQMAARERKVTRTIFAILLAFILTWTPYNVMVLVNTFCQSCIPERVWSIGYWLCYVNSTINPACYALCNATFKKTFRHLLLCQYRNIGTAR

## COc1ccc(CNC(=O)c2sc3nnc(C)c(C)c3c2N)cc1F
[1]
  fold change (FC): 45
[2]
  fold change (FC): 40
